According to paper PMC6017358, “In Silico-Based Repositioning of Phosphinothricin as a Novel Technetium-99m Imaging Probe with Potential Anti-Cancer Activity” (Molecules : A Journal of Synthetic Chemistry and Natural …, 2018):
Where a name gives a salt, the structure may show the parent alone.

Experiment: Biodistribution study in mice
Details: I.V., 10 min post injection, n = 3

For `CP(=O)(O)CCC(N)C(=O)O` (stereo not shown) [Phosphinothricin, 2-amino-4-(hydroxymethyl-phosphinylbutyric acid ammonium salt], the “Biological distribution, Bone” value was 36.13 ± 1.5 %ID/organ.
